Data taken from US6867200B1, “(Hetero)aryl-bicyclic heteroaryl derivatives, their preparation and their use as protease inhibitors” (Axys Pharmaceuticals, Inc., priority 1998, dated 2005).

Tests used:
human Urokinase = molecular target: T1, human Urokinase (Homo sapiens, UniProt P00749); assay: Urokinase (uPA) inhibition, chromogenic substrate hydrolysis, Ki app.; format: biochemical
T1 construct: purchased American Diagnostica, CT, USA

human Factor Xa = molecular target: T2, human Factor Xa (Homo sapiens, UniProt P00742); assay: Factor Xa inhibition, chromogenic substrate hydrolysis, Ki app.; format: biochemical
T2 construct: purified human Factor Xa; purchased Haematologic Technologies, VT, USA

Row | Structure (SMILES) | Ki (human Urokinase) | Ki (human Factor Xa)
1 | N=C(N)c1cc2cc(-c3cccc(-c4ccccc4)c3O)[nH]c2cc1F [compound 877] | 2500 nM | 33 nM
2 | N=C(N)c1ccc2nc(-c3cccc(-c4ccccc4)c3O)[nH]c2c1 [Ex. 110, 2-(2-Hydroxy-biphenyl-3-yl)-3H-benzoimidazole-5-carboxamidine] | 510 nM | 
